Earlier results as cited in US20260285867A1, “IMIDAZOTRIAZINE DERIVATIVES AS IL-17 MODULATORS” (UCB BIOPHARMA SRL, priority 2023, published 2026).

Protein sequences, listed by entry. Tags and fused reporters are not part of them. Residues count along the entry.
UniProt Q16552, 24-155 limits assumed: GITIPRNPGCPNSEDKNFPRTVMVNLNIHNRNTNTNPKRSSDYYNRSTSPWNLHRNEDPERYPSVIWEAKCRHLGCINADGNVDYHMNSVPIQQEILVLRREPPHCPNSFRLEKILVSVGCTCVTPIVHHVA

Target: IL-17A (Homo sapiens, UniProt Q16552)
Details: comparative data, values as stated in WO 2023/275301; cited from earlier work

SMILES	pIC50
Cc1nonc1C(=O)N[C@H](c1cn2ncc(C3(C(=O)NCC(C)(F)F)CCOCC3)nc2n1)C1CCC(F)(F)CC1	7.9
Cc1nonc1C(=O)N[C@H](c1cn2ncc(C3(C(=O)NCC(C)(F)F)CCN(C4COC4)CC3)nc2n1)C1CCC(F)(F)CC1	7.8
